From PMC4893804 (Journal of medicinal chemistry, 2015) come the findings set out here.

Sequences of proteins named here, by UniProt entry; tags and fusion partners are left off. A change or cut given only in a name is not applied to a line headed by its entry.
UniProt P09252: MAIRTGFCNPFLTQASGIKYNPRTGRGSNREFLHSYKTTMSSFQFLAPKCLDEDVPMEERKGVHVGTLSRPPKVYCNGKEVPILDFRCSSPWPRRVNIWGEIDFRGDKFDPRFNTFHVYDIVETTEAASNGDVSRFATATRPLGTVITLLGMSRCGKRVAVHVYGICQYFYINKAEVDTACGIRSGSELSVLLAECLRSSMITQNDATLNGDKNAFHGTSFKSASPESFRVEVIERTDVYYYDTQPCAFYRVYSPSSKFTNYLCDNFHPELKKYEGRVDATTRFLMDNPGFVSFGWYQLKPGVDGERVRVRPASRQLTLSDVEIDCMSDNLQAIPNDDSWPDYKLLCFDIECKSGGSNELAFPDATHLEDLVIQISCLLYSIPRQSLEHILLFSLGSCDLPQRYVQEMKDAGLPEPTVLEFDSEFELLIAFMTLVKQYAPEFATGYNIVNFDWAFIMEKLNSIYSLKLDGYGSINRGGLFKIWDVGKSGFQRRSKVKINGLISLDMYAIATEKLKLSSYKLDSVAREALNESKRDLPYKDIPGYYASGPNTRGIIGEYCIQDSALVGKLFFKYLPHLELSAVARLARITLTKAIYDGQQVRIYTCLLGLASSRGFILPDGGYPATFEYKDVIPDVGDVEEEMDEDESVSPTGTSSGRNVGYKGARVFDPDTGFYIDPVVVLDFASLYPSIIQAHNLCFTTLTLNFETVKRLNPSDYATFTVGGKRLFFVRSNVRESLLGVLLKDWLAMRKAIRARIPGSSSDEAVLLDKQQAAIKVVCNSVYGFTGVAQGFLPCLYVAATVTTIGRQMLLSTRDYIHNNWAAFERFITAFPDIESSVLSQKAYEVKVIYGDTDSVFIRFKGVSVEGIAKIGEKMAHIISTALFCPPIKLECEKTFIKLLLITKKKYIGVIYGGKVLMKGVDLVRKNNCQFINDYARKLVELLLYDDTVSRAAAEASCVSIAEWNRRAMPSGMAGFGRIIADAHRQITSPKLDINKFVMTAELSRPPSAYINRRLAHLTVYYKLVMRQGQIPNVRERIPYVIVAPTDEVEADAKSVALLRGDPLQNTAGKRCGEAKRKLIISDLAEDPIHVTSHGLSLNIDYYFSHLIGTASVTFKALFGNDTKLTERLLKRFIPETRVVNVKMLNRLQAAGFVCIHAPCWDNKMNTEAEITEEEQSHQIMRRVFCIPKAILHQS

Structures are written as SMILES.

For the assay, the target named is VZV DNA polymerase (Varicella-zoster virus, UniProt P09252). Put plainly: Enzyme assay with VZV DNA polymerase. In kind it is biochemical.

In general, IC50 refers to the concentration at which inhibition is half-maximal. A high value points to a need for much substance. As to `O=C(O)P(=O)(O)O` [PFA, phosphonoformic acid, reference compound], the IC50 was 180 ± 10 nM.
